For one compound, inhibition results are on record in ChEMBL document CHEMBL5674886, “GLUT4 expression and glucose transport in human induced pluripotent stem cell-derived cardiomyocytes” (PLoS One, 2019).

Activity calls are given as the source filed them. No cut-off for these calls is given here.

In this assay the target is T1, Solute carrier family 2, facilitated glucose transporter member 1 (Homo sapiens) (UniProt P11166).
T1 sequence (whole entry): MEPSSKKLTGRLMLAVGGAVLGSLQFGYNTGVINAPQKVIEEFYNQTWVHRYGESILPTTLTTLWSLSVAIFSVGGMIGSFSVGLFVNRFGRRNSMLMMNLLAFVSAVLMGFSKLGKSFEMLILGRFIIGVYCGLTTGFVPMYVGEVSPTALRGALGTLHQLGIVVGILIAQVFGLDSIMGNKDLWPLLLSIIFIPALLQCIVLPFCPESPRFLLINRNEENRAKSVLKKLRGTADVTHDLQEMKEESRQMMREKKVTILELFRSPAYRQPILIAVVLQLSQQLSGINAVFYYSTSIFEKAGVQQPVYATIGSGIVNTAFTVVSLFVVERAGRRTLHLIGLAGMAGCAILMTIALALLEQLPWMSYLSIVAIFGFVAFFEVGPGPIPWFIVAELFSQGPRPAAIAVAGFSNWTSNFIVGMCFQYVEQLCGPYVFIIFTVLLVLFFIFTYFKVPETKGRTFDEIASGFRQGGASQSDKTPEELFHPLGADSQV
In words: Inhibition of GLUT1 in human iPSC-CM cells assessed as reduction in insulin-stimulated [3H]-2-deoxyglucose uptake at 2 uM incubated for 30 mins by [3H]-2-deoxyglucose uptake assay. The format is cell-based.

For the compound `Cc1c(NC(=O)c2cc(C(N)=O)nc3cc(F)ccc23)c(C(F)(F)F)nn1Cc1ccc(C#N)cc1` [BAY-876], the inhibition result is “inactive”.
